What was measured:
[1] = molecular target: Adrenocorticotropic hormone receptor (Homo sapiens, UniProt Q01718); conditions: CHO-K1, Membrane, filed as antagonist, time 60.0 min
in vitro [2] = conditions: rat, liver microsomes
in vivo [3] = conditions: rat, po, 10 mg/kg
in vitro [4] = conditions: human, liver microsomes
in vivo [5] = conditions: rat, po, 10 mg/kg; remark: listed apart in the source
CHO-K1 [6] = conditions: Canis lupus familiaris, Membrane, filed as antagonist, time 30.0 min
CHO-K1 [7] = conditions: Rattus norvegicus, Membrane, filed as antagonist, time 60.0 min

Protein sequences, listed by entry. Tags and fused reporters are not part of them. Lines headed by an entry give the natural chain unless they say otherwise; changes in a name come on top.
UniProt Q01718: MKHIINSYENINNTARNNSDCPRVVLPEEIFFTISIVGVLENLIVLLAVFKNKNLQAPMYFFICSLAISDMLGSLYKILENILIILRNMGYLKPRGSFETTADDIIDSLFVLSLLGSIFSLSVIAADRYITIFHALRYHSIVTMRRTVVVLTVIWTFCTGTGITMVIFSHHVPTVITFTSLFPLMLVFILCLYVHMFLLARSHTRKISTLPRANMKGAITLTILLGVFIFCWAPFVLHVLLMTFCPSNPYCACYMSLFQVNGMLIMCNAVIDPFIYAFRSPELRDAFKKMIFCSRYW

SMILES | pKb [1] | other results
C[C@@H]1CN(C(=O)c2ccc(C(F)(F)F)cc2Cl)CCN1c1ccc(C(F)(F)F)cc1CN | 6.5 | 
CC1CN(C(=O)c2ccc(Cl)cc2Cl)CCN1c1ccc(C(F)(F)F)cc1CN (centres undefined) | 6.4 | 
CC1CN(c2ccc(C(F)(F)F)cc2CN)CCN1C(=O)c1ccc(Cl)cc1Cl (centres undefined) | 6.1 | 
CCOc1ncccc1-c1ccc(N2CCN(C(=O)c3ccc(Cl)cc3C(F)(F)F)C[C@H]2CC)c(C(=O)NCCNC)n1 |  | half-life (in vitro [2]): 3.85 h; AUC(0-t) (in vivo [3]): 0.334 µM·h; half-life (in vitro [4]): > 11.6 h; half-life (in vivo [5]): 2.7 h
CCOc1ccccc1-c1ccc(N2CCN(C(=O)C3(C(F)(F)F)CCC3)C[C@H]2CC)c(C(=O)N[C@@H]2CCN(C)C2)n1 | 8.8 | 
CCOc1ccccc1-c1ccc(N2CCN(C(=O)C3(C(F)(F)F)CCC3)C[C@H]2CC)c(C(=O)N[C@@H]2CN3CCC2CC3)n1 [ATUMELNANT] | 9.5 | pKb (CHO-K1 [6]): 9.6; pKb (CHO-K1 [7]): 9.6
CCOc1ncccc1-c1ccc(N2CCN(C(=O)C3(C(F)(F)F)CCC3)C[C@H]2CC)c(C(=O)N[C@@H]2CCN(C)C2)n1 | 8.9 | 
CC[C@@H]1CN(C(=O)c2ccc(C(F)(F)F)cc2Cl)CCN1c1ccc(C(F)(F)F)cc1C(=O)NCCN | 7.6 | pKb (CHO-K1 [7]): 7.1
CCOc1ncccc1-c1ccc(N2CCN(C(=O)C34CCC(C(F)(F)F)(CC3)CC4)C[C@H]2CC)c(C(=O)N[C@@H]2CCN(C)C2)n1 | 9.5 | 
CC[C@@H]1CN(C(=O)c2ccc(C(F)(F)F)cc2Cl)CCN1c1ccc(C(F)(F)F)cc1CN | 7.7 | 
CCOc1ncccc1-c1ccc(N2CCN(C(=O)C3(C(F)(F)F)CCCC3)C[C@H]2CC)c(C(=O)N[C@@H]2CCN(C)C2)n1 | 8.9 | 
CC[C@@H]1CN(C(=O)c2ccc(C(F)(F)F)cc2Cl)CCN1c1ccc(C(F)(F)F)cc1CNC[C@H](C)O | 7.6 | pKb (CHO-K1 [7]): 6.6

Source: ChEMBL document CHEMBL5344485, “Discovery of CRN04894: A Novel Potent Selective MC2R Antagonist” (ACS Med Chem Lett, 2024)
